The assay addresses SARS-CoV-2 M^pro (Severe acute respiratory syndrome coronavirus 2, UniProt P0DTD1). Nature of the assay: biochemical. Type of assay: biochemical.

Read-outs that look alike come from different tables or passages of the source.

By IC50 is commonly meant the midpoint of a concentration-inhibition curve.

For the molecule `COc1ccc(CN2C(=O)NC(=O)/C(=C\c3ccco3)C2=O)cc1` [CDE0972-G011], the IC50 (Table S1, M^pro inhibitors, 40 nmol/L enzyme, 20 µmol/L substrate, read-out: IC50) worked out at 0.267 ± 0.006 µM. `O=C(Oc1cncc(Cl)c1)c1sccc1Cl` [WNN2048-F004] gave an IC50 (IC50 (μM) at S/KM 1/2) of 0.32 ± 0.01 µM. Take `O=C1NC(=O)N(Cc2ccccc2)C(=O)C1=Cc1ccco1` [WNN3797-H008]: it took 0.56 ± 0.19 µM to reach half-maximal inhibition (IC50 (μM) at S/KM 1) (IC50).

`O=C1NC(=O)C(=Cc2ccc(-c3cccc(C(F)(F)F)c3)o2)C(=O)N1` [WNN3953-B007] came in with an IC50 (IC50 (μM) at S/KM 1/2) of 0.28 ± 0.08 µM.

`O=C1NC(=O)C(=Cc2ccc(-c3cccc(Cl)c3Cl)o2)C(=O)N1` [WNN3989-H007]: the IC50 was determined as 0.18 ± 0.01 µM (IC50 (μM) at S/KM 1) and 0.18 ± 0.07 µM (IC50 (μM) at S/KM 2).

The values above are taken from paper PMC9871955, “High-throughput screening of SARS-CoV-2 main and papain-like protease inhibitors” (Protein & Cell, 2022).
